According to US9958439B2, “Carbohydrate detection” (RICHTER LIFE SCIENCE DEVELOPMENT AB, priority 2012, dated 2018):

Test system: biofilm (curli, cellulose) of S. enteritidis wt strain 3934 and isogenic mutants
Details: present in the growth medium throughout the experiment

## hepta Hydrogen Thiophene Acetic Acid [h-HTAA]
  bactericidal property of the probe in growth medium: non-bactericidal
